Test results: patent publication US8765808B2, “Treatment or prevention of cancer and precancerous disorders” (CHS Pharma, Inc., priority 2005, dated 2014)
Read-outs that look alike come from different tables or passages of the source.

What was measured:
[1] = tested on: SCC-25 squamous cell skin cancer cell line; assay: MTS cell viability after pretreatment and oxidative stress, SCC skin cancer cells; format: cell-based, human; details: SCC-25, TBHP (FIG. 14)
Description: SCC-25 is a human squamous cell carcinoma cell line developed by J G Rheinwald [Rheinwald, 1981]. […] The cells were maintained in minimum essential medium (Eagle) supplemented with 2 mM L-glutamine, Earle's BSS containing 1.5 g/L sodium bicarbonate, 0.1 mM non-essential amino acids, 1.0 mM sodium pyruvate and 10% fetal bovine serum.
The experimental approach was to pretreat SCC cells with sulindac for 24 hr prior to exposure to TBHP for 2 hr. Sulindac (Sigma; S-8139) was freshly prepared as a 1M stock solution in 1M Tris.Cl, pH 8.0. SCC cells were suspended in culture medium containing 10% fetal bovine serum at a cell density of 6×10^5 cells/ml. Cell suspensions containing 500 μM sulindac or no sulindac (Control) were plated in 96 well microtiter plates with a total of 6×10^4 cells per well. The plates were incubated for 24 hr at 37° C. in a 5% CO2 incubator. The culture medium was then removed and the cells washed once with fresh culture medium without serum. After removal of the wash solution, fresh culture medium without serum that contained the indicated final concentration of TBHP was added to the cells for 2 hrs. Serum was omitted from the medium during the two-hour exposure to TBHP since TBHP may be rapidly depleted in the presence of serum.

[2] = tested on: Normal HEK skin cells (human neonatal epidermal keratinocytes); assay: Intracellular ROS by indicator dye fluorescence, normal HEK skin cells; details: Table 4; Sul 500 uM alone
SCC skin cancer cells = assay: Intracellular ROS by indicator dye fluorescence, SCC skin cancer cells
[3] = tested on: neonatal rat cardiac myocytes; details: Normal Cardiomyocyte, 200 μM epimer, 4 hours
Description: FIG. 23 is a graph showing the metabolic conversion of the R & S epimers of sulindac to the sulfide form in cardiac myocytes. The amount of sulindac sulfide formed by 10^6 cells incubated with 400 μM sulindac, R, S or RS mixture is measured as a function of time of incubation. […] The absorbance was measured at 330 nm.
To inhibit fibroblast growth, 0.1 mM bromodeoxyuridine was included in the medium for the first 3-5 days after plating. Cell cultures are incubated with sulindac or its individual epimers for specified times.
After the incubations, the cells were pelleted by low speed centrifugation and lysed by the addition of 200 μl of 100% acetonitrile, followed by vigorous vortexing. The lysate was centrifuged for 15 minutes at 14,000×g to pellet cell debris. 50 μl of the supernatant was transferred to an HPLC autosampler microvial. The separation of metabolites is carried out on a 4.6×75 mm C18 reverse-phase column. […] The metabolites are detected at a wavelength of 330 nm.
The cells are incubated with 200 μM R- or S-Sulindac epimer for 4 hours in a defined, serum-free medium (EX-CELL^SM). After incubation, the cells are collected, rinsed and lysed with acetonitrile. The cytosolic contents are separated on a C-18 column.

| Structure (SMILES) | potency in enhancing killing relative to sulfone metabolite [1] | fold increase compared to untreated control [2] [fold] | fold increase compared to untreated control (SCC skin cancer cells; Table 2, Sul 0.5 mM 24 hours and/or TBHP 100 μM 2 hours) [fold] | fold increase compared to untreated control (SCC skin cancer cells; Table 3, Sul 500 μM 24 hours and/or TBHP 100 μM 2 hours) [fold] | synergistic enhancement of ROS levels relative to additive value (SCC skin cancer cells; sulindac 500 uM in combination with TBHP 100 uM) | R/S (%) [3] [%] | R/S (%) ([3]; listed as R epimer) |
| --- | --- | --- | --- | --- | --- | --- | --- |
| CC1=C(CC(=O)O)c2cc(F)ccc2/C1=C\c1ccc([S+](C)[O-])cc1 (racemic) [sulindac, Sulindac] | more potent than the sulfone metabolite | 0 | 2 | 2 | 2 × the additive value of sulindac or TBHP alone | – | – |
| CC1=C(CC(=O)O)c2cc(F)ccc2/C1=C\c1ccc([S+](C)[O-])cc1 (stereo not shown) [R-epimer, R-sulindac sulfoxide] | – | – | – | – | – | 9 | < 10 |
